Consider one molecule from patent publication US8404805B2, “Characterization of GRP94-ligand interactions and purification, screening, and therapeutic methods relating thereto” (Duke University, priority 2000, dated 2013).

For this experiment, the system named is GRP94/HSP90.

Regarding `C[C@@H]1C[C@H]2O[C@@H]2/C=C\C=C\C(=O)Cc2c(Cl)c(O)cc(O)c2C(=O)O1` [radicicol], the “effect on conversion to the active conformation” value is “block the conversion of these proteins to the conformation necessary for function”.
